scFv variants of Ab-14 (light chain) against a SARS-CoV-2 spike peptide

Reference: Li et al. 2023, doi:10.1038/s41467-023-39022-2. File: FLAb, binding data.

Binding partner: SARS-CoV-2 spike HR2 peptide, sequence PDVDLGDISGINAS.

Parent: Ab-14, a human scFv built as VH, a 15-residue (Gly4Ser)3 linker, VL. Only the CDRs of the light chain vary.
VH: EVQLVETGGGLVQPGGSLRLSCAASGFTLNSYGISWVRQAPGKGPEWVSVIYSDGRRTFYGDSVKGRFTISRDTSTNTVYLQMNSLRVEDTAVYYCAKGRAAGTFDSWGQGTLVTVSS
VL: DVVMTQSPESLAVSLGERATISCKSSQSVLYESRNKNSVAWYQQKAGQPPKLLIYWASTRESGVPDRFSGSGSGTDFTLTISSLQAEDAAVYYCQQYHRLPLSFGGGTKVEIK

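Designed CDR sequences, proposed from the first random library and measured here. Several design methods are mixed in this list. AlphaSeq pools MATa yeast showing the antibodies with MATalpha yeast showing the peptide. Pairs that bind mate more often; barcode pairs of the diploids are counted by sequencing. A regression on co-assayed BCL2-family reference pairs converts the normalised counts of each replicate to an apparent Kd. Each pool was mated in six replicate cultures.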

Each variant is given by its three light chain CDRs, as the data file delimits them; those of the parent are KSSQSVLYESRNKNSVA, WASTRES, QQYHRLPLS.
Variants here have more than six changes.
Values are apparent Kd, the geometric mean of the replicates that gave a signal; lower means stronger binding.
A pair that was not seen in any replicate is written "no signal"; this usually means weak binding, but a binder can also be missed.
The authors averaged sequences with at least three values out of six and counted those with two or fewer as poor binders.
Values of this round are not directly comparable with the first-round values of the same sequences.
Nonspecific signal, from three strains lacking the peptide, appeared in 4% of pairings of all light chain designs, centred on 430 nM (5% of these signals below 38 nM); values are not corrected for it.

Variant KLTHVTFVLDRQKYSIA / DSERKME / QQYNRLPLT showed 15 nM (6 of 6 replicates). With MIAGSLESQEANQAPVA / SATCKEP / QQYSRLPLM the result was 19 nM (6 of 6 replicates). Variant NIVGRVEDKQTENANIA / DAHCRAG / QQYSRLPLS gave 1.7 nM (6 of 6 replicates). With KLMSHEQHGTARNSAMA / NAQVSTQ / QQYSHLPLS the result was 50 nM (6 of 6 replicates). Variant HVPNYTENFMSAKQNIA / DQSARTS / QQYDRLPLA showed 5.7 nM (6 of 6 replicates).

For KLSQVTHLESRNKNSIA / EMVTREV / QQYDRLPLS, the assay gave 2.1 nM (6 of 6 replicates). Variant KFSQSVLYEKRTKNSVV / NASTRES / QQIHRGPLS showed no signal (0 of 6 replicates). With TLVDNIQGGMWAKKNVA / DESTRVN / QQYYRLPLS the result was 480 pM (6 of 6 replicates). With KLSQSVWYESRLKNSVA / EASTRMY / QQYHRLPLA the result was 1.2 nM (6 of 6 replicates). With KVSQSVCYEDRNKNNVA / NASDRMS / QQYHRLPLS the result was 2.9 nM (6 of 6 replicates).

For KVSLSVLLWSRNANAVA / EASTRES / QQYHRLPLS, the assay gave 7.3 nM (6 of 6 replicates). Variant RLTQQMYGFNIHANAIA / SGKERYW / QQYARLPLS gave 120 nM (3 of 6 replicates). With MITAMLRGVGKDKNSVA / NAQTRES / QHYNRLPLS the result was 52 nM (6 of 6 replicates). For MIKEENIGVGNYQNSIA / DGASTMA / QQYYRLPLA, the assay gave 2.0 nM (6 of 6 replicates). For MISDLTMYGSSNKNSVA / DLSTRGS / QQYHRLPLS, the assay gave 800 pM (6 of 6 replicates).

Variant QLFSRWGQLTEIRQAVA / DATEVID / QQYMHLPLT gave 27 nM (5 of 6 replicates). Variant SIGMTLNQMYEKKNNVA / DLVEREN / QQYHRLPLS showed 16 nM (3 of 6 replicates). For KLSSFHQVESINKSNVA / EMVTRES / QQYDRLPLS, the assay gave 220 nM (5 of 6 replicates). Variant KWSWSVDLESRNDNSVA / DASTRED / QQYHRLPLS showed 16 nM (6 of 6 replicates). With KISQMIRVGATHSNSIA / EEVTRAK / QQYHRLPLA the result was 2.8 nM (6 of 6 replicates).

For KFSYSNPYETRNKNSVA / EASTREE / QQYHRLPLS, the assay gave 620 pM (6 of 6 replicates). Variant TLYGLSVSMSKNKNNVA / EMTTREK / QQYDRLPLV showed 7.4 nM (6 of 6 replicates). Variant KISQSQLYEDRNHWSVA / NASTRLS / QQYHRLPLS showed 2.3 nM (6 of 6 replicates). For KLFDELSVEQVNARNVA / DALATHE / QQYVMLPLS, the assay gave 1.1 nM (6 of 6 replicates). With KIGQSVLMGSYVRNSVA / QQSTREN / QQYDRLPLS the result was 4.8 nM (6 of 6 replicates).

Variant KFDLLMTDEKNANKNVA / GNVHHMA / QQYERLPLS showed 2.7 nM (6 of 6 replicates). With KFGQSVLMGSTVRNSVA / QQSTREN / QQYDRLPLS the result was 2.0 nM (6 of 6 replicates). For KLVQFMNRGTHHTSNIA / DAVNRLD / QQYYRLPLA, the assay gave 2.3 nM (6 of 6 replicates). For HIDIINRGEDMKQDPIA / QADHREQ / QQYFHLPLI, the assay gave 130 nM (5 of 6 replicates). Variant MMSMGYLGGMRAKNNVA / QESTREN / QQYHRLPLI gave 3.2 nM (2 of 6 replicates).

Variant KSSQSVSQENQNKGSVA / WASTRES / QQYHGHPLS showed 820 nM (1 of 6 replicates). Variant SFTIEMLQQQEQYNSVA / GEQKTVD / QQYGRLPLS showed 37 nM (3 of 6 replicates). With KFQGSVMMGDRNKNSVA / WASTRLS / QQYHRLPLS the result was 9.5 nM (6 of 6 replicates).